Data published in ChEMBL document CHEMBL5729531, “Neprilysin inhibitors” (2023).

Biological target: Neprilysin/Angiotensin-converting enzyme (Homo sapiens, UniProt P08473+P12821)
Test: Enzyme Inhibition Assay: The assays were performed in 384-well white opaque plates at 37° C. using the fluorogenic peptide substrates at a concentration of 10 μM in Assay Buffer (NEP: 50 mM HEPES, pH 7.5, 100 mM NaCl, 0.01% polyethylene glycol sorbitan monolaurate (Tween-20), 10 μM ZnSO4; ACE: 50 mM HEPES, pH 7.5, 100 mM NaCl, 0.01% Tween-20, 1 μM ZnSO4). The respective enzymes were used at …
Type: protein-complex assay

A Ki of 0.631 nM was found for `O=C(O)C(=O)N[C@H](Cc1ccc(-c2ccccc2)cc1)C[C@@H](CO)C(=O)O` in this work.
